Source: PubChem BioAssay
PGC1a acetyl inh – modulators of PGC1a acetylation | U2OS PGC1a acetylation, AlphaScreen anti-acetyl-lysine; with virally co-expressed GCN5 acetyltransferase | inhibition, % at 15.6 µM | 350,000 tested, 0.17% active;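 active = every replicate shows inhibition of at least 40%; inconclusive = mean inhibition at least 40% but some replicate below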;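 also: 0% = neutral control wells and 100% = positive control wells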
UUG fidelity – alters start codon recognition fidelity in yeast. S. cerevisiae UUG-firefly luciferase reporter, luminescence/redox ratio. 350,000 tested, 0.13% active. activity score, % at 18.7 µM. AID 602363;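 active means replicate mean at a twofold rise or more, about +100% in these data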;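 further: firefly luciferase made from a UUG start codon reports start codon fidelity; reporter light over untreated wells divided by growth signal over untreated wells; some hits fall short of that in this replicate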
E-sel inducer – E-selectin induction on HUVECs; activation, % at 7.58 µM; 260,000 tested, 0.37% active; HUVEC E-selectin immunofluorescence imaging; normalized: neutral wells 0, TNF-alpha wells 100; P16581; AID 686992;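 active = mean E-selectin-positive cell signal at least 10% of the positive control, reached in at least 60% of replicates, without over 20% cell loss; inconclusive = no rule given, readout overlaps actives, possibly toxicity-flagged; inactive = the rest, including those meeting only one limit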
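Material: HUVEC primary endothelial cells; Amount: 3,000 cells per well; Dosing: single concentration; Medium: EGM-2 growth medium on 0.1% gelatin-coated wells; Read-out basis: percent E-selectin-positive cells; Signal: immunofluorescence imaging; Control set: TNF-alpha, DMSO.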
PglD inh – blocks C. jejuni PglD acetyltransferase activity | 360,000 tested, 0.098% active | inhibition, % at 12.5 µM | purified PglD enzyme, DTNB colorimetric CoA detection; in the data active = inhibition above about 16%, passing the limit was not always enough; inconclusive = no clear call, values can overlap the other calls
C2C12 statin – suppression of simvastatin myotoxicity; C2C12 myotubes + simvastatin, ATP luminescence, 48 h; scaled: DMSO 0, geranylgeraniol control 100; rescue of ATP level, % at 7.49 µM; 330,000 tested, 0.78% active; AID 602340;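 active = mean ATP rescue above about 67%, or every replicate alone reaching that limit, limit read from the data, passing the limit was not always enough; inconclusive = no clear call, values can overlap the other calls; inactive = mean under the limit and some replicate under it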;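 also: myotubes were challenged with 10 µM simvastatin during compound exposure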
esBAF inh – inhibitors of esBAF chromatin remodeling in mouse ES cells; Bmi1-luciferase knock-in reporter, 24 h; 100% = twice the neutral-well signal; 350,000 tested, 2% active; reporter increase, % at 12.5 µM; in the data active = activation above about 40%; inconclusive = no clear call, values can overlap the other calls;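 also: 0% = median of the plate's neutral control wells and 100% = double that signal; a rise in the Bmi1 reporter signal indicates esBAF inhibition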
The depositor's hits bear a star; u = inconclusive; x = not tested or not shown. This is a sample that favours compounds with a hit; in the whole collection about 2.8% have one here.

SMILES	PGC1a acetyl inh	UUG fidelity	E-sel inducer	PglD inh	C2C12 statin	esBAF inh
Cc1ccc(O)c(C(=O)c2cc(C#N)c(=O)n(CC3CCCO3)c2)c1 (stereo not drawn)	-7	x	x	x	95*	0
COc1ccc(O)c(C(=O)c2cc(C#N)c(=O)n(CC3CCCO3)c2)c1 (stereo not drawn)	-3	-19	x	-2	x	1
CCS(=O)(=O)NCC[C@@H]1CC[C@@H](NC(=O)C2CCCC2)[C@H](CO)O1	9	0	-1	2	-3	0
O=C(O)c1ccc(NNC(=S)Nc2cc(C(F)(F)F)ccc2Cl)cc1	x	-64	x	1	-47	54*
COCC#Cc1ccc(CC[C@H]2O[C@H]3CC[C@H](CO)O[C@H]3C[C@@H]2n2cc(C3(O)CCCC3)nn2)cc1	-4	x	x	x	x	x
COc1ccc(Nc2n[nH]c(N)c2C(N)=O)cc1	-1	x	28*	x	0	-1
COc1ccc(Nc2nc(C)cc(C)c2C(N)=O)cc1	14	-18	x	-4	u	9
CN(C)CC(=O)Nc1ccc2c(c1)[C@H]1C[C@@H](CC(=O)N3CCCCC3)O[C@H](CO)[C@H]1O2	3	x	0	1	1	-5
COc1ccccc1NC(=O)Nc1ccc2c(c1)C(=O)N(C)C[C@@H](OC)[C@@H](C)CN[C@@H](C)CO2	12	x	0	-1	-6	-6
COC(=O)C1(C(=O)OC)NOC2C(=O)N(c3ccc(Cl)cc3Cl)C(=O)C21 (stereo not drawn)	1	-11	x	-1	134*	0
COC(=O)C1(C(=O)OC)NOC2C(=O)N(N(C)c3ncc(C(F)(F)F)cc3Cl)C(=O)C21 (stereo not drawn)	16	x	x	x	0	-5
Cc1cc(C)n(CC(=O)N2c3ccccc3Sc3ccccc32)n1	-15	-15	x	-1	119*	-5
Cc1cc(C)n(CC(=O)O)n1	7	-24	1	4	x	-12
Cc1ccnc(NC(=O)CC(NC(=O)c2ccccc2Cl)c2ccccc2)c1 (stereo not drawn)	x	-10	x	3	8	52*
Cc1ccc(NC(=O)CNC(=O)COc2ccccc2)nc1	5	-12	0	5	13	-7
Cc1ccnc(NC(=O)CNC(=O)COc2ccccc2)c1	x	-14	-1	0	4	74*
Cc1ccnc(NC(=O)CCNC(=O)c2ccccc2Cl)c1	x	-13	0	-4	-2	46*
Cc1ccc(NC(=O)CCNC(=O)c2ccccc2Cl)nc1	-2	-6	0	-1	6	4
Cc1ccc(NC(=O)CC(NC(=O)c2ccccc2Cl)c2ccccc2)nc1 (stereo not drawn)	1	-11	1	3	5	-5
CC(=O)n1cc([C@@H]2C=C(C(=O)N3CCN(Cc4ccccc4)CC3)O[C@H](OCCCCO)C2)c2ccccc21	-4	70	x	-1	x	x
COCc1cn(CC[C@H]2CC[C@H](NC(=O)Nc3ccc(F)cc3)[C@H](CO)O2)nn1	6	-11	2	0	1	-1
COc1cc(OC)cc(-c2cc3ccccc3c(=O)o2)c1	9	-21	0	-3	-13	48*
COc1ccc2c(c1)oc(=O)c1cc(OC)ccc12	-5	6	x	5	5	79*
Nc1ccc(-c2cc3ccccc3c(=O)o2)cc1	1	-27	x	-2	4	-49
COc1ccc2c(c1)oc(=O)c1ccccc12	-6	-7	x	3	2	41*

Rewritten as comma-separated lines: part of the list above.
structure,PGC1a acetyl inh,UUG fidelity,E-sel inducer,PglD inh,C2C12 statin,esBAF inh
COc1ccc(Nc2n[nH]c(N)c2C(N)=O)cc1,-1,x,28*,x,0,-1
COc1ccc(Nc2nc(C)cc(C)c2C(N)=O)cc1,14,-18,x,-4,u,9

Looked up above:
`CN(C)CC(=O)Nc1ccc2c(c1)[C@H]1C[C@@H](CC(=O)N3CCCCC3)O[C@H](CO)[C@H]1O2` in E-sel inducer reads 0
`Cc1ccc(NC(=O)CC(NC(=O)c2ccccc2Cl)c2ccccc2)nc1` (stereo not drawn) in PGC1a acetyl inh reads 1
`COc1ccc2c(c1)oc(=O)c1cc(OC)ccc12` in UUG fidelity reads 6
`Cc1ccnc(NC(=O)CC(NC(=O)c2ccccc2Cl)c2ccccc2)c1` (stereo not drawn) in C2C12 statin reads 8
`CC(=O)n1cc([C@@H]2C=C(C(=O)N3CCN(Cc4ccccc4)CC3)O[C@H](OCCCCO)C2)c2ccccc21` in UUG fidelity reads 70
`O=C(O)c1ccc(NNC(=S)Nc2cc(C(F)(F)F)ccc2Cl)cc1` in esBAF inh reads 54*

Other entries.
SMILES	PGC1a acetyl inh	UUG fidelity	E-sel inducer	PglD inh	C2C12 statin	esBAF inh
COc1ccc2c(C)c(Cl)c(=O)oc2c1	-2	-12	x	-2	-1	-5
O=C(COc1ccc(Cl)cc1Br)Nc1ccncc1	x	-13	x	-4	2	79*
OCc1cc(Br)ccc1OCc1nc2ccccc2s1	x	-18	x	-1	-8	77*
Oc1ccccc1OCc1nc2ccccc2s1	-11	-11	x	4	6	41*
O=C(CCCOc1ccc(Cl)cc1Cl)Nc1ccncc1	4	-14	x	-4	-7	14
O=C(COc1ccc(Br)cc1CO)Nc1ccccc1	x	-19	x	5	-5	56*
C[C@@H]1CCCCO[C@@H](CN(C)Cc2ccc3c(c2)OCO3)[C@@H](C)CN([C@@H](C)CO)C(=O)c2cc(N(C)C)ccc2O1	-2	x	2	x	-19	-11
C[C@H]1CN([C@@H](C)CO)C(=O)Cc2cc(NC(=O)Nc3ccc(F)cc3)ccc2O[C@H]1CN(C)C(=O)NC1CCCCC1	-2	-3	x	2	-1	3
O=C(COc1cccnc1[N+](=O)[O-])Nc1cccc(Br)c1	-1	-8	0	7	10	63*
COc1ccc(NC(=O)COc2cccnc2[N+](=O)[O-])cc1OC	0	-18	0	0	0	5
Cc1cc(C)n(-c2ccc(F)cc2)c(=O)c1C#N	4	x	17	x	-1	-11
Cc1cc(C)n(-c2cccc(Cl)c2)c(=O)c1C#N	-3	-1	x	-2	118*	1
CCC1CCc2c(sc(NC(=O)c3cccnc3)c2C(N)=O)C1 (stereo not drawn)	x	1	0	-4	x	38*
CC(C)NC(=O)N1C[C@H]2[C@@H](c3ccccc31)[C@@H](CO)N2C(=O)c1ccccn1	1	-4	0	-3	-37	6
CN1c2ccc(Br)cc2[C@@H]2[C@@H](CCN2C(=O)Cc2cccnc2)[C@@H]1CO	3	24	1	-3	16	-13
Cc1noc(C)c1S(=O)(=O)N(C)C[C@H]1Oc2ccc(NS(=O)(=O)c3cccs3)cc2C(=O)N([C@@H](C)CO)C[C@H]1C	x	1	0	-1	12	-4
Cc1noc(C)c1S(=O)(=O)Nc1ccc2c(c1)CC(=O)N([C@H](C)CO)C[C@@H](C)[C@H](CN(C)C(=O)Nc1cccc3ccccc13)O2	-8	2	32*	1	-7	5
Cc1noc(C)c1S(=O)(=O)Nc1ccc2c(c1)CC(=O)N([C@H](C)CO)C[C@H](C)[C@@H](CN(C)C(=O)Nc1cccc3ccccc13)O2	0	x	305*	x	x	x
Cc1noc(C)c1S(=O)(=O)Nc1ccc2c(c1)CC(=O)N([C@@H](C)CO)C[C@@H](C)[C@@H](CN(C)C(=O)Nc1cccc3ccccc13)O2	5	16	-8	2	-16	5
O=[N+]([O-])c1ccccc1OCCCn1cnc2ccccc21	4	-12	x	4	-4	65*
Clc1ccc(OCCn2cnc3ccccc32)c(Cl)c1	-25	-26	x	6	-6	71*
O=[N+]([O-])c1ccccc1OCCOc1ccccc1[N+](=O)[O-]	x	x	0	x	x	x
c1ccc2c(c1)ncn2CCOCCOCCn1cnc2ccccc21	10	-39	x	-3	17	7
O=c1c2ccccc2ncn1CCCOc1ccccc1[N+](=O)[O-]	-37	-4	x	0	-10	62*
